Antibody variant affinities, Ab-95 light chain, assay 2

From the AlphaSeq antibody data of Engelhart et al. 2022 (doi:10.1038/s41597-022-01779-4), copy in the FLAb collection.

All variants were tested on one target, the spike HR2 peptide PDVDLGDISGINAS (SARS-CoV-2).

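AAYL52 was designed without a model: most single CDR substitutions and a random sample of double and triple ones. The assay is AlphaSeq: two haploid yeast populations carry antibody and antigen on their surface. Pairs that bind mate more often; barcode pairs of the diploids are counted by sequencing. The ratio of observed to expected reads was calibrated, replicate by replicate, on BCL2-family standards whose Kd was known from biolayer interferometry. Each pool was mated in three replicate cultures.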

The variants keep the heavy chain, the linker and the frameworks of Ab-95 (scFv order VH, three GGGGS repeats, VL).
VH: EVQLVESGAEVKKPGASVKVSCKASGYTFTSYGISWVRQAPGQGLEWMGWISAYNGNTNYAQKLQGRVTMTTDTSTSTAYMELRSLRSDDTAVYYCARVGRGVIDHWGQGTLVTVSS
VL: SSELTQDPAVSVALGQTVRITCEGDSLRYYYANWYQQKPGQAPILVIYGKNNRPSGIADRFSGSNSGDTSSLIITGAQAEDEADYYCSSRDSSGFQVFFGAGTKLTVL

Each variant's VL is given in full. The read-out is the apparent dissociation constant on a log10 scale (nM): the lower, the stronger. "n.d." means that the variant was in the library but no mating with the target was seen in that replicate; the authors take this as a sign of poor binding, and no number exists. For reference, the parent read 2.31 as the reference entry and 2.25 as a member of this library.

| # | VL | replicates, log10 nM |
|---|---|---|
| 1 | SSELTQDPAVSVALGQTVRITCEGDSRQYYYANWYQQKPGQAPILVIYGKNNRPSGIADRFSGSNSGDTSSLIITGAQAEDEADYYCSSRDSAGFQVFFGAGTKLTVL | 2.41 / 3.76 / 2.92 |
| 2 | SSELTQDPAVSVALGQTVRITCEGDSLRYYYANWYQQKPGQAPILVIYGKNNRPSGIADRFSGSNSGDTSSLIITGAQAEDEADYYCHSRASSGFCVFFGAGTKLTVL | 2.44 / 1.94 / 1.63 |
| 3 | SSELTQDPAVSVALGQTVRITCEGDSLRYYYPNWYQQKPGQAPILVIYGKNNRPSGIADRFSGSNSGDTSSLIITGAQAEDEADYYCSSRDSSFFVVFFGAGTKLTVL | 2.16 / 1.97 / 1.71 |
| 4 | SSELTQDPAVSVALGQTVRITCEGDSLRYYLANWYQQKPGQAPILVIYGKNNRPMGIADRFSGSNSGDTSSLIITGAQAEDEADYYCSDRDSSGFQVFFGAGTKLTVL | 4.36 / 3.97 / 2.83 |
| 5 | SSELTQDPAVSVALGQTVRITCEGDSLRTYYANWYQQKPGQAPILVIYGKNNRPQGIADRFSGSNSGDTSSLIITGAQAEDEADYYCSSRNSSGFQVFFGAGTKLTVL | n.d. / 3.42 / n.d. |
| 6 | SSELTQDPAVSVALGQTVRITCEGDSLRMYYINWYQQKPGQAPILVIYGKNNRPSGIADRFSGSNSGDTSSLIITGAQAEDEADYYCSSRDSSGCQVFFGAGTKLTVL | n.d. / n.d. / n.d. |
| 7 | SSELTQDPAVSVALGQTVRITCEGDSLRYYYANWYQQKPGQAPILVIYGKWGRPSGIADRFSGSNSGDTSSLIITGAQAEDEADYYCSSRDSFGFQVFFGAGTKLTVL | 2.98 / 5.63 / n.d. |
| 8 | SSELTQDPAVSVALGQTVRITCEGDSLRYYYANWYQQKPGQAPILVIYGINNRPSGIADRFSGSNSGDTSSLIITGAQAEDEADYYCSSRPSSGDQVFFGAGTKLTVL | n.d. / 3.81 / n.d. |
| 9 | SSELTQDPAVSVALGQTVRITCEGDSLRYYYANWYQQKPGQAPILVIYTKNNRPSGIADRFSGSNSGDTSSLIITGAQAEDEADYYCSSRDPSGFGVFFGAGTKLTVL | 5.05 / 5.58 / 4.33 |
| 10 | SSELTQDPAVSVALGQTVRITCEGDSLRYYYTNWYQQKPGQAPILVIYGKENRPSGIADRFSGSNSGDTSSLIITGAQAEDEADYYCSMRDSSGFQVFFGAGTKLTVL | 3.03 / 4.34 / n.d. |
| 11 | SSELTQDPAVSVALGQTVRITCEGDSLRYYYANWYQQKPGQAPILVIYGYVNRPSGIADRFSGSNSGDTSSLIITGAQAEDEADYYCSSRDSSGFQVFFGAGTKLTVL | 4.23 / 3.63 / n.d. |
| 12 | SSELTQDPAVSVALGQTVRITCEGDSLRYYYPNWYQQKPGQAPILVIYCKNNRPSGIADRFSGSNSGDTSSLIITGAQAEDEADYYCSSDDSSGFQVFFGAGTKLTVL | n.d. / n.d. / n.d. |
| 13 | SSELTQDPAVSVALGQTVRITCEGDSLRYYYANWYQQKPGQAPILVIYGKNNPPSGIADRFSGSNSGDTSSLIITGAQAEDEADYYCSMRDSSAFQVFFGAGTKLTVL | n.d. / n.d. / n.d. |
| 14 | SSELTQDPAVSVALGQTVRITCEGDSLRYYYANWYQQKPGQAPILVIYMKNEWPSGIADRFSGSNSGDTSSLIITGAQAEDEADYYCSSRDSSGFQVFFGAGTKLTVL | 2.95 / 4.52 / n.d. |
| 15 | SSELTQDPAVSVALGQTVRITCEGDYLRYYYANWYQQKPGQAPILVIYGKNNRPCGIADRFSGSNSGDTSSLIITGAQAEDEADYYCSSRDSSGFQVFFGAGTKLTVL | 2.65 / 2.82 / 3.13 |
| 16 | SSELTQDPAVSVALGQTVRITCEGDSLLYYYANWYQQKPGQAPILVIYGKNNPPSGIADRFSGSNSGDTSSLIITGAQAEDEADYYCSSRDSSGFPVFFGAGTKLTVL | n.d. / n.d. / 3.49 |
| 17 | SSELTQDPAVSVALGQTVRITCESDSYRYYYANWYQQKPGQAPILVIYGKNNRPSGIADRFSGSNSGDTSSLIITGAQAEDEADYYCSSRDSSGFVVFFGAGTKLTVL | 2.87 / 2.56 / 2.67 |

The closing 2 entries, repeated:

VL,"replicates, log10 nM"
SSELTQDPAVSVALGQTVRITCEGDSLLYYYANWYQQKPGQAPILVIYGKNNPPSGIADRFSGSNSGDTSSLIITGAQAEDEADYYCSSRDSSGFPVFFGAGTKLTVL,n.d. / n.d. / 3.49
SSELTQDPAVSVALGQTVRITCESDSYRYYYANWYQQKPGQAPILVIYGKNNRPSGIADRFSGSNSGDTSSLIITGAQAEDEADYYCSSRDSSGFVVFFGAGTKLTVL,2.87 / 2.56 / 2.67

Nonspecific signal, from three strains lacking the peptide, appeared in 28% of pairings of library AAYL52, centred on 3.91 (5% of these signals below 2.90); values are not corrected for it.